Results: paper PMC4613909

Experiments:
[1] = molecular target: Artemia salina 60S ribosomal subunit (mature) (Artemia salina); assay: iRIA (in vitro Ribosomes Interaction Assay, microwell solid-phase binding); 60S immobilised; ten-fold unlabeled eIF6 coincubated with labeled eIF6
[2] = molecular target: Artemia salina 60S ribosomal subunit (mature) (Artemia salina); assay: iRIA (in vitro Ribosomes Interaction Assay, microwell solid-phase binding); 60S immobilised; time course of labeled eIF6 binding (on-rate) at low Mg2+
[3] = molecular target: Artemia salina 60S ribosomal subunit (mature) (Artemia salina); assay: iRIA (in vitro Ribosomes Interaction Assay, microwell solid-phase binding); ribosomal particles immobilised; release of labeled eIF6 followed over time after maximal binding and wash (off-rate)
[4] = molecular target: Artemia salina 60S ribosomal subunit (mature) (Artemia salina); assay: ELISA; details: natural protein

| percent displacement of labeled eIF6 by ten-fold unlabeled eIF6 [1] [%] | percent of maximal binding within two minutes [2] [%] | percent of eIF6 released at 30 min [3] [%] | Kd [4] [nM] | Substance |
| --- | --- | --- | --- | --- |
| 50 | 25 | 20 | – | human full length N-terminal his-tagged eIF6 (from UniProt P56537 1-245) (natural protein) |
| – | – | – | 0.0628 | human full length N-terminal his-tagged eIF6 (from UniProt P56537 1-245) |
